Experimental data published in patent publication US6355633B1, “Aryl sulfonic acids and derivatives as FSH antagonists” (American Home Products Corporation, priority 1999, dated 2002).

Experiments:
[1] = molecular target: T1, FSH receptor (Homo sapiens, UniProt P23945); test: In Vitro Bio-test Procedure of Agonists and Antagonists to the FSH Receptor (cAMP accumulation in CHO-3D2 cells); format: cell-based; parameters: expressed in transfected cells; host or cells: CHO-3D2 cells; details: agonist mode, four-parameter logistic equation
T1 sequence (P23945 18-695): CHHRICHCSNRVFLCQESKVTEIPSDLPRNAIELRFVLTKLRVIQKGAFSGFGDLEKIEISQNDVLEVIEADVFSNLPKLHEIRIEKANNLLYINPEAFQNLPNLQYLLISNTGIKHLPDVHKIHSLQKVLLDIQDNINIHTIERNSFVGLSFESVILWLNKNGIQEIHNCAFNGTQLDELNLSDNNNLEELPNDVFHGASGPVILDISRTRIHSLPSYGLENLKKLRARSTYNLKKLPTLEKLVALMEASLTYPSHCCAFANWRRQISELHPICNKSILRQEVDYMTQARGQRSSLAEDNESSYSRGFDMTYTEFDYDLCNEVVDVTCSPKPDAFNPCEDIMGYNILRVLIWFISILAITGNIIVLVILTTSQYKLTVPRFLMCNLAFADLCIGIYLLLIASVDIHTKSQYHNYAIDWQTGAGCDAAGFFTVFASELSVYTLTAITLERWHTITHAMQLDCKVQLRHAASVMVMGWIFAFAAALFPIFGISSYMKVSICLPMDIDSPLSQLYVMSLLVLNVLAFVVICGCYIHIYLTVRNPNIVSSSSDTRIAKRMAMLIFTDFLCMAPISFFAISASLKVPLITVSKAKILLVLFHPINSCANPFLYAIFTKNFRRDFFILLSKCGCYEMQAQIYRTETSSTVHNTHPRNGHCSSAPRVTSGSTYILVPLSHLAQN
Text: In Vitro Bio-test Procedure of Agonists and Antagonists to the FSH Receptor
Objective: This procedure was used to verify in vitro efficacy of compounds found to bind to the FSH receptor in the binding procedure.
Compound Vehicle: Stock compounds were solubilized in an appropriate vehicle preferably PBS/0.1% Bovine Serum Albumin (BSA; Sigma Chemical Co., St. Louis, Mo.). The compounds were subsequently diluted in sterile procedure medium (Optimem (Gibco/BRL, Grand Island, N.Y.)/0.1% BSA) prior to use in the bio-procedure.
Preparation of CHO-3D2 Cells; CHO-3D2 cells were plated into 96-well Nunc tissue culture plates at a density of 30,000 cells/well in DMEM/F12 medium (Gibco/BRL, Grand Island, N.Y.) supplemented with 5% Fetal Bovine Serum (Hyclone, Fetal Clone II), 2 mM L-glutamine and penicillin/streptomycin (100 U/mL). Cells were plated one day prior to performing the bio-procedure.
Procedure: On the day of procedure, the wells were washed two times with 100 ul/well of pre-warmed (37 deg C.) procedure medium. After aspirating the second wash, an additional 100 ul of procedure medium was added to each well and the cells pre-incubated for 30-45 minutes at 37 deg C. In a humidified incubator with 5%CO2/95% air. […] CAMP accumulation in the medium was measured by radioimmunoassay. […]
For antagonist mode, compounds were tested in a dose-response paradigm versus a constant level of purified human FSH (the ED20 (1.85 ng/mL); previously calculated during characterization of the bio-procedure). […]
The doses chosen to test each compound were extrapolated from the initial screening process (receptor binding data). […] The cells were washed two times with 100 ul PBS followed by examination of the cells under a fluorescence microscope using a 490 nm filter. […]
Analysis of Results: cAMP accumulation was expressed as fmol/mL. […] Data were analyzed statistically by analysis of variance and significant differences between treatments and control determined by Dunnett's test. […]

[2] = test system: FSH-induced changes in ovarian follicular maturation; test: Immature Rat Test Procedure (FSH-induced organ wet weight); format: in vivo; details: immature rats
Method: Immature Rat Test Procedure
In order to assess the ability of compounds to affect FSH-induced changes in ovarian follicular maturation in vivo, immature rats (18 days of age) are treated twice daily for three days with compound in the presence of a half-maximal dose of purified human FSH. Animals are treated via the i.p. or p.o. routes. On the fourth day following treatment, animals are euthanized and the ovaries, uterus and spleen (the spleen is a control tissue that should not respond to FHS stimulation) collected for wet weight determination. In each experiment animals treated with vehicle alone or FSH alone are used as negative and positive controls, respectively. In this paradigm FSH induces a 2-3-fold increase in ovarian and uterine wet weight but has no effect on the spleen (control tissue).

[3] = molecular target: T2, FSH receptor (Rattus norvegicus, UniProt P20395); test: In Vitro Bio-test Procedure of Agonists and Antagonists to the FSH Receptor Using Primary Cultures of Rat Granulosa (estradiol secretion); format: cell-based; details: rat granulosa cells, previously calculated during characterization of the bioprocedure
T2 construct: endogenous in cells; host or cells: primary ovarian granulosa cells of DES-treated immature Sprague-Dawley rats
T2 sequence (P20395 18-692): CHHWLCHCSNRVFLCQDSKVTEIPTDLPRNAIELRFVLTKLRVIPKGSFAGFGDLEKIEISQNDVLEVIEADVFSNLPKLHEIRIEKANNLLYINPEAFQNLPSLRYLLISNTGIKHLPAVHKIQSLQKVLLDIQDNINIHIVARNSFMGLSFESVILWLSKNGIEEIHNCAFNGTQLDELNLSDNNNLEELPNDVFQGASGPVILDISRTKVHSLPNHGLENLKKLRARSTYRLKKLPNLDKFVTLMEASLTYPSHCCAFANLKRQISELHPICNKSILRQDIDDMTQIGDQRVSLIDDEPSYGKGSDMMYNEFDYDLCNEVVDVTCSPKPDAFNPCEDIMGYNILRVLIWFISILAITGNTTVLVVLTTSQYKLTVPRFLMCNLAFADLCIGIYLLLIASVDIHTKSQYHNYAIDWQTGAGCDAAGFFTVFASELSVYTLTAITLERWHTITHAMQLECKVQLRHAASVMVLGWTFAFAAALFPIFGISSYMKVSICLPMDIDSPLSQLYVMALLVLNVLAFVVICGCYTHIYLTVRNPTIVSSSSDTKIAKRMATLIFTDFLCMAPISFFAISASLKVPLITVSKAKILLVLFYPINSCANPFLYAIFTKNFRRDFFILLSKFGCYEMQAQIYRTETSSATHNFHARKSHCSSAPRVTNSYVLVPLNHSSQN
Text: In Vitro Bio-test Procedure of Agonists and Antagonists to the FSH Receptor Using Primary Cultures of Rat Granulosa
Objective: This procedure was used as a low-throughput functional screening procedure to study in vitro efficacy of compounds found to be agonists or antagonists of the FSH receptor.
Materials and Methods: Reagents
Compound Vehicle: Stock compounds were solubilized in an appropriate vehicle, preferably PBS (phosphate buffered saline) or DMSO (dimethyl sulfoxide), at a concentration of 0.1 M. The compounds were subsequently diluted in sterile challenge medium [McCoy's 5A medium (Gibco/BRL, Grand Island, N.Y.) supplemented with […], […], 5 ng/mL sodium selenite (ITS, Sigma Chemical Co., St. Louis, Mo.), 146 mg/mL L-glutamine, 100 nM testosterone, 100 nM DES and 100 U/mL penicillin/[…]/250 ng/mL amphotericin B (antibiotic/antimycotic, Gibco) and 0.1% bovine serum albumin (Sigma, St. Louis, Mo.)] prior to use in the procedure. […]
Preparation of Granulosa Cells: Twenty-four day-old immature female Sprague-Dawley rats (Charles River Laboratories, Wilmington, Mass.) were used as donors for ovarian granulosa cells. […] After the final spin, the cells were resuspended by gentle trituration in 25 mL serum-free medium, an aliquot counted in a hemocytometer and viability estimated by trypan blue exclusion. […]

hFSH: purified or recombinant human FSH (follicle stimulating hormone), reference compound and positive control
apparent ED20, cAMP accumulation [1]: 1.85 ng/mL
apparent ED50, cAMP accumulation [1]: 6.03 ng/mL
apparent ED80, cAMP accumulation [1]: 22.55 ng/mL
effect on the spleen (control tissue) ([2]; FSH alone): no effect
increase in ovarian and uterine wet weight ([2]; FSH alone (positive control)): 2-3 fold
ED50, estradiol secretion [3]: 0.5 ng/mL
